Reference: patent EP0089901A1, “New 2-oxo-1-pyrrolidineacetic acid esters, their methods of production and therapeutic compositions containing the same” (PRODES S.A., priority 1982, dated 1983)

How the values were obtained:
Format in all cases: in vivo
mouse = assay: Unspecific protection against lethality: gasping time after quick decapitation; conditions: gasping time after decapitation of mouse; DOSE 40mg/kg
Source text: (§1) It is known that the nootropic drugs, as Piracetam, as well as the phenobarbital or hydantoine have a protection on the survival time of animals.
(§2) In the intention to increase the accuracy, we have a three trials panel in order to study the effect of the new synthetized drugs.
The second trial is the quick decapitation of mouse. The head has a typical mandibular movement, known as gasping, as searching the breathing air. The gasping time is well prolonged by the active drugs.

animals [1] = assay: Unspecific protection against lethality: hypoxia-hypobara (decompression), survival time; conditions: survival time under decompression; DOSE 40mg/kg
Source text: as §1, §2
We have chosen the hypoxia-hypobara : the decompression kills the animals, because of the lack of 02.

animals [2] = assay: Unspecific protection against lethality: anoxia by CNK, survival time; conditions: survival time after CNK; DOSE 40mg/kg

CCCC(C)C1(CC)C(=O)NC(=O)NC1=O (stereo not drawn) [Pentobarbital]
Active: GASPING (mouse) | HYPOXIA HYPOBARA (animals [1]) | ANOXIA BY CNK (animals [2])
